Target: c-kit autophosphorylation (Phospho c-Kit Tyr721) in HMC 1.1 (exon 11/13) cells, V654A (Homo sapiens, UniProt P10721, V560G/V654A)
Experiment: pKIT Meso Scale Discovery (MSD) assay, inhibition of autophosphorylation of KIT, HMC1.1_V654A
Assay type: cell-based
Conditions: read-out: Code (IC50 for inhibition of autophosphorylation of KIT, pKIT MSD assay), Table 1, cell line not named for Table 1, b1056 names pKIT HMC1.1_V654A, tested form: TFA

Chains of the proteins cited; added tags and fusions are not shown. Residues count along the entry.
UniProt P10721, 26-976 V560G/V654A limits assumed: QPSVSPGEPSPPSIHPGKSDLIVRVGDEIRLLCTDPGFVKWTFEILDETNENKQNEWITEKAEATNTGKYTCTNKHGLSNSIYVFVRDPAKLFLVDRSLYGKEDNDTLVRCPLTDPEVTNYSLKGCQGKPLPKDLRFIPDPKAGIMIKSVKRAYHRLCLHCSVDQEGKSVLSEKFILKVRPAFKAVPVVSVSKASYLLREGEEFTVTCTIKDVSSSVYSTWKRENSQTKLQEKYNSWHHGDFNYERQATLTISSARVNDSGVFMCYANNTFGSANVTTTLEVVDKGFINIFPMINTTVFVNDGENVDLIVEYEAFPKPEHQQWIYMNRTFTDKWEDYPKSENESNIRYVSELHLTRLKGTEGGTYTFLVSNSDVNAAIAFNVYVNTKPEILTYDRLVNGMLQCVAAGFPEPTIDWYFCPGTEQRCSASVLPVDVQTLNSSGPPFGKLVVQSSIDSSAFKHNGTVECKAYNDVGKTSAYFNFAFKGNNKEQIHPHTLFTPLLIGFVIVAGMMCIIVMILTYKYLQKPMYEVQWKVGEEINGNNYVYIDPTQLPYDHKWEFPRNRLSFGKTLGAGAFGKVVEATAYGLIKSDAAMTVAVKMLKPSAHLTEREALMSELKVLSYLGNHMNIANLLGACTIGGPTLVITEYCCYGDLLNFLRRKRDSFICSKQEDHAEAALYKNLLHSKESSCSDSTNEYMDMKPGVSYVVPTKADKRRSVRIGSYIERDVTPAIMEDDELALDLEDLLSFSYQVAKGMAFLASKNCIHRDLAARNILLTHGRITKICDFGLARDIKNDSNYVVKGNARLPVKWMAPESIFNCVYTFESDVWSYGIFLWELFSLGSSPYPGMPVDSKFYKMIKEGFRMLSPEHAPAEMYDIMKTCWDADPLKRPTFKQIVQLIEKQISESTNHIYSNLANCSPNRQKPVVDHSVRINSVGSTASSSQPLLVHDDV

COc1cc(Nc2cc(N)nc(C(F)F)n2)ncc1-c1cnn(CC(C)(C)N)c1
IC50: 10 to 40 nM

— patent US20250270190A1, “KIT INHIBITORS” (BLUEPRINT MEDICINES CORPORATION, priority 2022, published 2025)
